Amino acid sequences for entries named in this document (tags omitted). Chains listed by the source or under a name are the forms on record and can include a tag or linker.
UniProt P15692, other isoform, or with tags, fused parts or gaps: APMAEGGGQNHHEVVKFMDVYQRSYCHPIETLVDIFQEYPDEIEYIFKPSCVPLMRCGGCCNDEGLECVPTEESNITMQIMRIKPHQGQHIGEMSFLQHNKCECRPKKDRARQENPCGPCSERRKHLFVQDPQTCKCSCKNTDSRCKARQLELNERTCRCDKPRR

According to patent US20110177074A1 (ZymoGenetics, published 2011):

Target: T1, human VEGF-A165 (human, UniProt P15692 207-395)
T1 construct: R&D Systems; homodimer; also called recombinant human VEGF-A
Experiment: SPR, VEGF-A immobilised, 1:1 dissociation fit

koff: 2e-05 s⁻¹
B1: ranibizumab (anti-VEGFA affinity-matured Fab, Genentech) (Fab, V domains shown)
VH: not shown
VL: not shown
